Earlier results on one compound are cited in patent publication US5885786A, “Methods for screening of substances for inhibition of multidrug resistance” (priority 1996, dated 1999).

For this series the following is noted: oral or unspecified; cited from earlier work.

Turning to `O=C(O)CCCc1ccc(N(CCCl)CCCl)cc1` [Chlorambucil, 4-[bis(2-chlorethyl)amino] benzenebutanoic acid], the “absorption (in words)” value is “rapidly and completely absorbed”.
